Literature values as cited in publication PMC7935786 (Cancer Science, 2021).

Test system: EZH2‐wt lymphoma xenograft
Conditions: EZH2‐wt lymphoma xenograft models, SCID mice; cited from earlier work

With `CCN(c1cc(-c2ccc(CN3CCOCC3)cc2)cc(C(=O)NCc2c(C)cc(C)[nH]c2=O)c1C)C1CCOCC1` [Tazemetostat] as the molecule, how does the antitumor effects read?
The antitumor effects was “induce antitumor effects”.
